Legend:
Experiment in all cases: PubChem AID 652078
Conditions in all cases: equilibrium dialysis LC-MS/MS, 8 h, at 1 µM, active compounds read high
mouse = tested on: mouse
rat = tested on: rat
human = tested on: human

- plasma protein binding (mouse): 96%
- plasma protein binding (rat): 99%
- plasma protein binding (human): 73%
SMILES: COC(=O)c1cc(Br)cnc1N1CCC(NC2CCCCC2)C(O)C1 (stereo not drawn)

Reference: PubChem BioAssay AID652078 (The Scripps Research Institute Molecular Screening Center, 2013)
